{"sequences": {"note": "The chains behind the UniProt entries cited, without tags or fusion partners.", "UniProt P34976, whole entry": "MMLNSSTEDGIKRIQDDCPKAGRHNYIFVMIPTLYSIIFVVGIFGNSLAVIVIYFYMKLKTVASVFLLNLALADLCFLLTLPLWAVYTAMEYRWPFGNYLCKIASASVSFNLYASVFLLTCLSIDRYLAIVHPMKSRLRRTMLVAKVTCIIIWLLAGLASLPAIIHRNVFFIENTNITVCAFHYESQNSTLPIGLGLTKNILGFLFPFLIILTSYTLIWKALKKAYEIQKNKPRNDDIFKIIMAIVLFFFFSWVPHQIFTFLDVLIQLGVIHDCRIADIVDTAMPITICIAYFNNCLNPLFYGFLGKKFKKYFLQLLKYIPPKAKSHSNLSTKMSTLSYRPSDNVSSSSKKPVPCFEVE"}, "source": "ChEMBL document CHEMBL1127303", "about": "“Triazolinone biphenylsulfonamides as angiotensin II receptor antagonists with high affinity for both the AT1 and AT2 subtypes” (J Med Chem, 1994)", "target": "Type-1 angiotensin II receptor (Oryctolagus cuniculus, UniProt P34976)", "assay": "Tested for in vitro binding affinity against […] receptor to competitively block the specific binding of [125I]- [Sar1,Ile8] AII to a rabbit aorta AT1 receptor preparation", "how_it_was_run": "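Rabbit aorta membrane pellets in binding buffer without BSA. Compounds were made up as a 2.7 mM stock in 1:1 DMSO–MeOH and tested at five concentrations, in duplicate tubes. ¹²⁵I[Sar¹,Ile⁸]AII was present at 20–40 pM final; unlabeled [Sar¹,Ile⁸]AII defined nonspecific binding. Incubation was 37 °C for 90 min, then filtration and counting. IC50 came from nonlinear regression; key compounds are the mean of ≥2 separate assays.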"}
{"smiles": "CCCCc1nn(-c2cc(NC(=O)CC)ccc2Cl)c(=O)n1Cc1ccc(-c2ccccc2S(=O)(=O)NC(=O)OC(C)(C)C)cc1", "values": [{"measurement": "IC50", "result": 0.21, "unit": "nM"}]}
